{"source": "paper PMC5508335", "about": "(Journal of Veterinary Internal Medicine, 2017)", "test_system": "healthy purpose-bred cats", "conditions": "in vivo", "data": [{"molecule": "CN1CC[C@]23c4c5ccc(O)c4O[C@H]2C(=O)CC[C@H]3[C@H]1C5", "note": "[hydromorphone]", "values": [{"measurement": "cats with successful emesis", "value": 75, "unit": "%"}]}]}
